Columns and labels:
PCM1 WT LIR peptide = assay: BLI; biotinylated LIR peptide immobilised on streptavidin biosensors (Octet Red 96), ATG8 protein in solution; 25 mM Tris pH 7.5, 150 mM NaCl, 0.5 mM TCEP, 0.1% Tween-20, 1 mg/ml BSA, 25 °C; Kd from response against concentration, Y=Rmax*X/(Kd+X)
[1] = target: LC3B (recombinant, BLI) (human) (UniProt Q9GZQ8); assay: BLI
PCM1 V1956D LIR peptide = assay: BLI; biotinylated LIR peptide immobilised on streptavidin biosensors (Octet Red 96), ATG8 protein in solution; 25 mM Tris pH 7.5, 150 mM NaCl, 0.5 mM TCEP, 0.1% Tween-20, 1 mg/ml BSA, 25 °C; Kd from response against concentration, Y=Rmax*X/(Kd+X)
[2] = target: PCM1 K1957I LIR peptide (BLI); assay: BLI; biotinylated LIR peptide (50 μg/ml) immobilised on streptavidin biosensor, ATG8 in solution; Octet Red 96; 25 mM Tris pH 7.5, 150 mM NaCl, 0.5 mM TCEP, 0.1% Tween-20, 1 mg/ml BSA; 25 °C; Kd from response against concentration
FIP200 T704I LIR peptide = assay: BLI; biotinylated LIR peptide immobilised on streptavidin biosensors (Octet Red 96), ATG8 protein in solution; 25 mM Tris pH 7.5, 150 mM NaCl, 0.5 mM TCEP, 0.1% Tween-20, 1 mg/ml BSA, 25 °C; Kd from response against concentration, Y=Rmax*X/(Kd+X)
PCM1 K1957I LIR peptide = assay: as above

GABARAP L63I (from UniProt O95166 1-117) (natural protein)
Kd (PCM1 WT LIR peptide): 1.99 µM

PCM1 LIR peptide mutated at P1962 (X7) (BLI) (from UniProt Q15154)
Kd [1]: 394 µM

GABARAP-L1 (from UniProt Q9H0R8 1-117) (natural protein)
Kd (PCM1 V1956D LIR peptide): 5.19 µM

GABARAP-L1 (recombinant, BLI) (from UniProt Q9H0R8 1-117) (natural protein)
fold increase in binding against the PCM1 WT LIR peptide [2]: 12 fold

LC3A (from UniProt Q9H492 1-121) (natural protein)
Kd (FIP200 T704I LIR peptide): 6.67 µM

GABARAP L55V (from UniProt O95166 1-117) (natural protein)
Kd (PCM1 WT LIR peptide): 2.78 µM

GABARAP R28K (from UniProt O95166 1-117) (natural protein)
Kd (PCM1 WT LIR peptide): 4.16 µM

GABARAP F62K (from UniProt O95166 1-117) (natural protein)
Kd (PCM1 WT LIR peptide): 3.79 µM

GABARAP (from UniProt O95166 1-117) (natural protein)
Kd (PCM1 K1957I LIR peptide): 0.166 µM
Kd (FIP200 T704I LIR peptide): 0.463 µM

PCM1 LIR peptide mutated at the acidic residues in X−1 and X−2 (BLI) (from UniProt Q15154)
Kd [1]: 1050 µM

Reference: PMC6499816, “Molecular determinants regulating selective binding of autophagy adapters and receptors to ATG8 proteins” (Nature Communications, 2019)
